{"sequences": {"note": "Amino acid sequences for entries named in this document (tags omitted).", "UniProt Q9UM07, whole entry": "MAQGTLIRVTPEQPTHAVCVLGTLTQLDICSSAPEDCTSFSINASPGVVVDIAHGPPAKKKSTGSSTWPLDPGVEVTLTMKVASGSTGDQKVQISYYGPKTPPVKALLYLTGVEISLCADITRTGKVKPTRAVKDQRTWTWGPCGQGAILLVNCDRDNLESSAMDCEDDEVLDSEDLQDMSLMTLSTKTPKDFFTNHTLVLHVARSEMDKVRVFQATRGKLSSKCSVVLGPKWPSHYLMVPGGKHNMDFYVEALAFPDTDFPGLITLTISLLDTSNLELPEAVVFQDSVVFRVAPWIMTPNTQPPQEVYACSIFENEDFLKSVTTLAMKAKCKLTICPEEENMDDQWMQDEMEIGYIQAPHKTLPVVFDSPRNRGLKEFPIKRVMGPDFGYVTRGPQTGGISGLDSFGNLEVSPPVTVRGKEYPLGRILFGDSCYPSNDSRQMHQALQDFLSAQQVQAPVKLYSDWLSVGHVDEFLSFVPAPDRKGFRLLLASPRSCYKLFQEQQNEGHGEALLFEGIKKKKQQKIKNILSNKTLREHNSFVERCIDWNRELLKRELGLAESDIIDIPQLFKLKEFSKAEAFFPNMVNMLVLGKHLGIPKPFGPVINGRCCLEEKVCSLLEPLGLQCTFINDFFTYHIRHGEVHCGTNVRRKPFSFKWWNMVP"}, "source": "patent US8007996B2", "about": "“Methods to identify protein arginine deiminase 4 inhibitors” (University of South Carolina, priority 2007, dated 2011)", "key": {"PAD4 [1]": {"target": "T1, PAD4 (Homo sapiens, UniProt Q9UM07)", "T1 construct": "made in house", "assay": "Standard PAD4 assay (citrulline formation from BAEE), IC50 studies", "format": "biochemical", "description": "Reactions were quenched by flash freezing in liquid N2. The amount of Cit produced was then quantified according to methods known in the art. […] Inhibition Studies."}, "PAD4 [2]": {"target": "T1, PAD4", "assay": "Inhibition studies: kinetic analysis of PAD4 activity versus BAEE concentration", "format": "biochemical", "conditions": "BAEE 0-20 mM, 0.2 μM PAD4; read-out: Kis", "description": "PAD4 activity was measured as a function of substrate concentration in the absence and presence of increasing concentrations of each inhibitor.\nBriefly, the compounds were incubated in Reaction Buffer containing various concentrations of BAEE (0-20 mM) for 10 minutes at 37° C. PAD4 (0.2 μM) was then added to initiate the reaction and allowed to proceed for 6 additional minutes. Reactions were then quenched by flash freezing in liquid N2 and the amount of Cit produced was quantified.\n[formula] using GraFit version 5.0.11."}}, "data": [{"smiles": "CN(C)[C@H]1C(O)=C(C(N)=O)C(=O)C2(O)C(O)=C3C(=O)c4c(O)ccc(Cl)c4C(C)(O)C3CC12", "note": "(stereo partly drawn) [Chlortetracycline]", "values": [{"measurement": "IC50", "setting": "PAD4 [1]; 1 mM BAEE, 0.2 μM PAD4, 15 min pre-incubation at 37° C.", "value": "550 ± 70", "unit": "µM"}, {"measurement": "IC50", "setting": "PAD4 [1]; standard assay", "value": 100, "unit": "µM"}, {"measurement": "Ki", "setting": "PAD4 [2]", "value": "540 ± 530", "unit": "µM"}]}]}
